The text below walks through data of ChEMBL document CHEMBL5380788, “Discovery of a Potent and Orally Bioavailable Zwitterionic Series of Selective Estrogen Receptor Degrader-Antagonists” (J Med Chem, 2023).

Protein sequences, listed by entry. Tags and fused reporters are not part of them. Lines headed by an entry give the natural chain unless they say otherwise; changes in a name come on top.
UniProt P03372, whole entry: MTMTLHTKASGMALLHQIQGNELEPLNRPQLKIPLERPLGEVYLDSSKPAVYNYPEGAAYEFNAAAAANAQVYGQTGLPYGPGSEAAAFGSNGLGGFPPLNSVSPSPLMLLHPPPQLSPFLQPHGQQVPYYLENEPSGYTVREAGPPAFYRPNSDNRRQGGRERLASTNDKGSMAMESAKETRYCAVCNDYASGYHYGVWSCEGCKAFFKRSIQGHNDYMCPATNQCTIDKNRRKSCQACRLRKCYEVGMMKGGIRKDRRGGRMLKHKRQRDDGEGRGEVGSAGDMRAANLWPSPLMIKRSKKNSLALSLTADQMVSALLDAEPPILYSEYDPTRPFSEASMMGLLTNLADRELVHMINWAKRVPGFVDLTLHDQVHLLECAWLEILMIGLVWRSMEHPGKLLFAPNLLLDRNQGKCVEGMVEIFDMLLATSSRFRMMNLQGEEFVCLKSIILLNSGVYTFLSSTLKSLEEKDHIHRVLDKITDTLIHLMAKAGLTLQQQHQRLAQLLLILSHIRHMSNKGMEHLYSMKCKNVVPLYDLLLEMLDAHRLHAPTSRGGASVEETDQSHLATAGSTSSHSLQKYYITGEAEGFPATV
UniProt Q92731, whole entry: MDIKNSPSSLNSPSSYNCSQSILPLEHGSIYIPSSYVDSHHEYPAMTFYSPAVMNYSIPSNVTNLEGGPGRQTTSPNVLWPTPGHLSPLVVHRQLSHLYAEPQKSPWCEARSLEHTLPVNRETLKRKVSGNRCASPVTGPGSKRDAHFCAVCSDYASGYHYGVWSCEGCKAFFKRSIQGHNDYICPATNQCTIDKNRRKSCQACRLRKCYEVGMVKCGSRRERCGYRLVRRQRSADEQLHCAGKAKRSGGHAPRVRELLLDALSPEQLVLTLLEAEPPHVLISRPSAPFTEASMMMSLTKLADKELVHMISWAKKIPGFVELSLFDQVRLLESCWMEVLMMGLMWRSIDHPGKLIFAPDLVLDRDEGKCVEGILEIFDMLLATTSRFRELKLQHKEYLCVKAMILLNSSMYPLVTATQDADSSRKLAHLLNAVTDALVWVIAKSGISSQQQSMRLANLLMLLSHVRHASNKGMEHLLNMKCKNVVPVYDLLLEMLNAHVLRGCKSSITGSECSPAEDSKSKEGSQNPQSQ
UniProt Q12809: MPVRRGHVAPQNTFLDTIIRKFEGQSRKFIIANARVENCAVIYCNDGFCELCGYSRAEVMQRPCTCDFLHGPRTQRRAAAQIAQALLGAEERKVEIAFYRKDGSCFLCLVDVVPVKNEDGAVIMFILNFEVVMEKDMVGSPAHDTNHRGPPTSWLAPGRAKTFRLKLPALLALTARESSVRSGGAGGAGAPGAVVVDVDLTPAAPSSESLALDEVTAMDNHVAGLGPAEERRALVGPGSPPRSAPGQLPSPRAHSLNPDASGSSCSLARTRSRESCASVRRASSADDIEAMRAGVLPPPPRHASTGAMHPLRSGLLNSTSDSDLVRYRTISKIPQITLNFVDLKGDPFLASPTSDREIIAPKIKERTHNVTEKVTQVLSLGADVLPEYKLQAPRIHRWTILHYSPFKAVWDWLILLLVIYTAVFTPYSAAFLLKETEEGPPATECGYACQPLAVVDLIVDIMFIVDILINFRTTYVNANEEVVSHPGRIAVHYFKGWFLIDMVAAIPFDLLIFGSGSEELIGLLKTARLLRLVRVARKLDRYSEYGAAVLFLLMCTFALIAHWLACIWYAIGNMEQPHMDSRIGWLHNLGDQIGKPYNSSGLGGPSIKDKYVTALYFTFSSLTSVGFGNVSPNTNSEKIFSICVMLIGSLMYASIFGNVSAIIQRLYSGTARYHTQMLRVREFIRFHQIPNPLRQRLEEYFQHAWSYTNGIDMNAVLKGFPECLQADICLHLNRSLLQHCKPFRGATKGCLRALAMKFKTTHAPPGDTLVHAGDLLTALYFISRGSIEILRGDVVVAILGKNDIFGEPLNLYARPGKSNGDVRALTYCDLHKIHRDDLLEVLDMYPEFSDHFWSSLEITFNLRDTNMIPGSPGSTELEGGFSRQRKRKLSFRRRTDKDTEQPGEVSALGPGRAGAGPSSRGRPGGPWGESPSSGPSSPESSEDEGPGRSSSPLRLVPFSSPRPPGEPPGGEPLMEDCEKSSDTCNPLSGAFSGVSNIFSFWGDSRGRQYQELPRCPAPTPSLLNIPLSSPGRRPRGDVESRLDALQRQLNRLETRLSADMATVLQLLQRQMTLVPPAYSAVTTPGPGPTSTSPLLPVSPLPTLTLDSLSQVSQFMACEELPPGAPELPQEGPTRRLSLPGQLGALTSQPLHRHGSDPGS

What is called hepatocyte CLint is the capacity of the preparation to metabolise the compound, expressed as a volume cleared per time. Lower therefore signals slow turnover. By logD is commonly meant the decadic logarithm of the distribution of all forms, ionised or not, between an organic phase and buffer at a given pH. A low value points to lower lipophilicity. In general, fraction unbound refers to free concentration divided by total concentration. Lower therefore signals little free substance. The solubility is the concentration that dissolves in the medium under given conditions. Lower therefore signals little dissolved substance. In general, Ki refers to the equilibrium dissociation constant of an inhibitor or competing ligand from its target.

Converted amounts (≈) assume the structure as drawn. The source made the active and inactive calls. The rule behind the calls is not given here.

The target of series [1] is T1, Estrogen receptor (Homo sapiens, UniProt P03372).
A short description of series [2]: in vitro. Conditions: rat, hepatocytes.
Series [3] is described as follows: physchem. Conditions: buffer, pH 7.4.
Series [4] in a line: in vitro. The note with it: human, plasma.
Series [5] can be described thus: physchem. Conditions: aqueous phosphate buffer, pH 7.4.
In series [6] the test system is Breast carcinoma cell. The note with it: Homo sapiens, dose 0.5 mg/kg, route po, time 28.0 day.
For series [7], the system named is MCF7. Nature of the series: cells. Conditions: Homo sapiens, MCF7, 144 h, read-out: pIC50 (converted).
For series [8], the target named is T2, Urotensin-2 receptor (Homo sapiens, UniProt Q9UKP6).
T2 sequence (Q9UKP6 whole entry): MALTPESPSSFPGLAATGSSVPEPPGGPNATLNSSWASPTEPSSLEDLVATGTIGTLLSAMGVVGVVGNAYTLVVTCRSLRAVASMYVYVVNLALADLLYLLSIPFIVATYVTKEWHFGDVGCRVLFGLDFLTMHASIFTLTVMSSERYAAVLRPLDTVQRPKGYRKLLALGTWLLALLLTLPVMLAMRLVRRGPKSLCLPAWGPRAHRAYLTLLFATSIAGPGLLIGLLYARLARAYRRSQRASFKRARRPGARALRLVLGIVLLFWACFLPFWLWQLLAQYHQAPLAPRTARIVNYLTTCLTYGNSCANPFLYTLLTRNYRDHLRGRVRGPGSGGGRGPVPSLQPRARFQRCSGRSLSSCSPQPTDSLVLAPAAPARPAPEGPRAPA

A short description of series [9]: cells. Conditions: Homo sapiens, MCF7, 24 h, read-out: pIC50 (converted).
A short description of series [10]: cells. Conditions: Homo sapiens, MCF7, read-out: pIC50 (converted).
The subject of series [11] is calcium channel, diltiazem site. As to the kind of experiment: in vitro.
Series [12] concerns the target Estrogen receptor beta (Homo sapiens, UniProt Q92731).
The nature of series [13]: cells. The note with it: Homo sapiens, MCF7, read-out: pIC50 (converted). The source holds these as a separate data set.
The subject of series [14] is MCF7. Nature of the series: cells. The note with it: Homo sapiens, MCF7, 72 h, read-out: pIC50 (converted).
In series [15] the test system is Breast carcinoma cell. As to the kind of experiment: animal or person. Conditions: Mus musculus, po, 672 h, read-out: INH.
Series [16] concerns Breast carcinoma cell. Nature of the series: animal or person. The note with it: Mus musculus, po, 672 h, read-out: INH. The source holds these as a separate data set.
Series [17] addresses T1, Estrogen receptor. The source holds these as a separate data set.
In series [18] the target is T1, Estrogen receptor. This is another data set of the same source.
In series [19] the target is Voltage-gated inwardly rectifying potassium channel KCNH2 (Homo sapiens, UniProt Q12809).

As for `COc1cc(OCCNCCCF)ccc1[C@@H]1c2[nH]c3ccccc3c2C[C@@H](C)N1CC(F)F`, in series [1], the IC50 is 1.58 nM. In series [2], this compound displayed a hepatocyte CLint of 5 µL/min/1e6 cells.

As for `COc1c(OCCNCCCF)cccc1[C@@H]1c2[nH]c3ccccc3c2C[C@@H](C)N1CC1(F)COC1`, the logD in [3] was 3. Besides, in [2], the hepatocyte CLint was 27 µL/min/1e6 cells.

In series [1], `C[C@@H]1Cc2c([nH]c3ccccc23)[C@@H](c2cccc(NCCNCCCF)c2)N1CC1(F)COC1` showed an IC50 of 20 nM. The same compound returned a hepatocyte CLint in series [2] of 48 µL/min/1e6 cells.

In [1], `C[C@@H]1Cc2c([nH]c3ccccc23)[C@@H](c2ccc(F)c(OCCNCCCF)c2)N1CC(F)(F)F` gave an IC50 of 25.1 nM. The same compound displayed a hepatocyte CLint in series [2] of 22 µL/min/1e6 cells.

Compound `C[C@@H]1Cc2c([nH]c3ccccc23)[C@@H](c2c(F)cc(OCCN3CC(CF)C3)cc2F)N1CC1(F)COC1` showed a fraction unbound in [4] of 0.031. The solubility at 24 h in series [5] turned out to be 90 µM (≈ 46.6 µg/mL).

For `Cc1c(OCCNCCCF)ncc(F)c1[C@@H]1c2[nH]c3ccccc3c2C[C@@H](C)N1C[C@@H](C)C(=O)O`, the inhibition result in [6] was “inactive”. The IC50 in series [7] was 39.8 nM; in series [9] it was 15.8 nM; in series [10] it was above 31600 nM; in series [1], 1.58 nM; in series [12], 20 nM; in series [13], 1.26 nM. The IC50 in [14] was 6.31 nM; in series [17], 25.1 nM; in [18], 0.158 nM. Besides, the figures for the Ki in series [8] and in [11] were 7700 nM and 4700 nM, respectively. Further, the inhibition in vivo at 50 mg/kg in [15] was determined as 96%. For the same compound, the inhibition in vivo at 15 mg/kg in [16] came out at 46%.

In turn, `Cc1c(OCCN2CC(CF)C2)ccc(F)c1[C@@H]1c2[nH]c3ccccc3c2C[C@@H](C)N1C[C@H](C)C(=O)O` gave an IC50 in [1] of 2.51 nM. The compound further gave a logD in series [3] of 0.9. Besides, the fraction unbound in series [4] was determined as 0.3. Also, the hepatocyte CLint in series [2] was determined as 2 µL/min/1e6 cells.

As for `COc1ccc(OCCNCCCF)cc1[C@@H]1c2[nH]c3ccccc3c2C[C@@H](C)N1CC(F)F`, the IC50 in [1] was 2 nM. The compound further gave a hepatocyte CLint in series [2] of 21 µL/min/1e6 cells.

On to `Cc1c(OCCNCCCF)ncc(F)c1[C@@H]1c2[nH]c3ccccc3c2C[C@@H](C)N1C[C@H](C)C(=O)O`, for which the IC50 in [1] was 1.26 nM.

`COc1cc(OCCNCCCF)ccc1[C@@H]1c2[nH]c3ccccc3c2C[C@@H](C)N1CC1(F)COC1` had an IC50 in series [1] of 1.58 nM.

In series [1], `C[C@@H]1Cc2c([nH]c3ccccc23)[C@@H](c2cccc(OCCNCCCF)c2)N1CC(F)(F)F` showed an IC50 of 1.58 nM. The intrinsic metabolic clearance (hepatocyte CLint) in [2] was 18 µL/min/1e6 cells.

In series [3], `C[C@@H]1Cc2c([nH]c3ccccc23)[C@@H](c2c(F)cc(OCCN3CC(CF)C3)cc2F)N1CC(C)(C)F` displayed a logD above 4.4. Moreover, the solubility at 24 h in series [5] was below 3 µM.

As to `Cc1c(OCCNCCCF)ccc(F)c1[C@@H]1c2[nH]c3ccccc3c2C[C@@H](C)N1CC(F)(F)F`, in series [1], the IC50 is 1.26 nM. In series [2], this compound came in with a hepatocyte CLint of 10 µL/min/1e6 cells.

For `C[C@@H]1Cc2c([nH]c3ccccc23)[C@@H](c2cccc(N(C)CCNCCCF)c2)N1CC1(F)COC1`, in [1], the IC50 is 200 nM. In addition, in series [3], the logD came out at 3. This compound also showed a hepatocyte CLint in [2] of 210 µL/min/1e6 cells.

With `Cc1c(OCCNCCCF)ccc(F)c1[C@@H]1c2[nH]c3ccccc3c2C[C@@H](C)N1CC(F)(F)CO`, the hepatocyte CLint in series [2] is 19 µL/min/1e6 cells.

For the compound `Cc1c(OCCNCCCF)ccc(F)c1[C@@H]1c2[nH]c3ccccc3c2C[C@@H](C)N1C[C@H](C)C(=O)O`, the IC50 in [1] was 3.16 nM.

In series [1], `COc1ccc(OCCNCCCF)cc1[C@@H]1c2[nH]c3ccccc3c2C[C@@H](C)N1CC(F)(F)CO` gave an IC50 of 1.26 nM. This compound returned a hepatocyte CLint in series [2] of 41 µL/min/1e6 cells.

Consider `C[C@@H]1Cc2c([nH]c3ccccc23)[C@@H](c2cccc(OCCCN3CC(CF)C3)c2)N1CC1(F)COC1`, for which the IC50 in [1] is 31.6 nM. Moreover, the logD in [3] was determined as 3.2. In [4], this compound showed a fraction unbound of 0.05. The compound further had a hepatocyte CLint in series [2] of 68 µL/min/1e6 cells.

Compound `Cc1ccc(OCCNCCCF)cc1[C@@H]1c2[nH]c3ccccc3c2C[C@@H](C)N1CC(F)(F)F` gave an IC50 in series [1] of 3.98 nM. For the same compound, the logD in [3] worked out at 4. The compound further displayed a hepatocyte CLint in series [2] of 23 µL/min/1e6 cells.

As for `Cc1c(OCCN(C)CCCF)ncc(F)c1[C@@H]1c2[nH]c3ccccc3c2C[C@@H](C)N1C[C@@H](C)C(=O)O`, the IC50 in [1] was 1.58 nM.

As to `COc1cc(OCCNCCCF)ccc1[C@@H]1c2[nH]c3ccccc3c2C[C@@H](C)N1CC(F)(F)CO`, the hepatocyte CLint in series [2] was 12 µL/min/1e6 cells. In series [19], this compound had an IC50 of 5700 nM.

In series [1], `C[C@@H]1Cc2c([nH]c3ccccc23)[C@@H](c2cccc(OCCNCCCF)c2)N1CC1(F)COC1` had an IC50 of 6.31 nM. In series [3], this compound showed a logD of 3. The compound also returned a hepatocyte CLint in [2] of 52 µL/min/1e6 cells.

For `C[C@@H]1Cc2c([nH]c3ccccc23)[C@@H](c2ccc(OCCNCCCF)cc2)N1CC1(F)COC1`, the IC50 in series [1] was 5.01 nM. The hepatocyte CLint in series [2] stood at 7 µL/min/1e6 cells.

On to `C[C@@H]1Cc2c([nH]c3ccccc23)[C@@H](c2cccc(OCCNCCCF)c2F)N1CC(F)(F)F`, for which, in series [1], the IC50 is 1.58 nM. The hepatocyte CLint in series [2] worked out at 10 µL/min/1e6 cells.

Regarding `Cc1c(OCCNCCCF)ccc(F)c1[C@@H]1c2[nH]c3ccccc3c2C[C@@H](C)N1C[C@@H](C)C(=O)O`, in series [1], the IC50 is 10 nM.

The compound `C[C@@H]1Cc2c([nH]c3ccccc23)[C@@H](c2c(F)ccc(OCCNCCCF)c2F)N1CC(F)(F)CO` showed an IC50 in [1] of 0.631 nM.

For `C[C@@H]1Cc2c([nH]c3ccccc23)[C@@H](c2cc(F)cc(OCCNCCCF)c2)N1CC(F)(F)F`, the IC50 in series [1] is 7.94 nM. For the same compound, the hepatocyte CLint in series [2] was found to be 12 µL/min/1e6 cells.

In the case of `Cc1c(OCCNCCCF)ccc(F)c1[C@@H]1c2[nH]c3ccccc3c2C[C@@H](C)N1CCC(=O)O`, the values for the IC50 in [1] and in [19] were 15.8 nM and above 40000 nM, respectively. This compound had a logD in series [3] of 0.3. In [2], the hepatocyte CLint is below 1 µL/min/1e6 cells.

Turning to `Cc1c(OCCN(C)CCCF)ccc(F)c1[C@@H]1c2[nH]c3ccccc3c2C[C@@H](C)N1C[C@H](C)C(=O)O`, the IC50 in series [1] is 2 nM.

In series [1], `COc1ccc(OCCNCCCF)cc1[C@@H]1c2[nH]c3ccccc3c2C[C@@H](C)N1CC1(F)COC1` gave an IC50 of 2 nM. Besides, the hepatocyte CLint in [2] is 37 µL/min/1e6 cells.

In [1], `C[C@@H]1Cc2c([nH]c3ccccc23)[C@@H](c2cc(OCCNCCCF)ccc2F)N1CC(F)(F)F` showed an IC50 of 2 nM.

Take `C[C@@H]1Cc2c([nH]c3ccccc23)[C@@H](c2cccc(OCCCNCCCF)c2)N1CC1(F)COC1`: the IC50 in series [1] is 12.6 nM. This compound displayed a logD in series [3] of 2.4. The same compound displayed a fraction unbound in series [4] of 0.049. The hepatocyte CLint in series [2] was 18 µL/min/1e6 cells.

For `Cc1c(OCCNCCCF)cccc1[C@@H]1c2[nH]c3ccccc3c2C[C@@H](C)N1CC(F)(F)F`, the intrinsic metabolic clearance (hepatocyte CLint) in series [2] is 10 µL/min/1e6 cells.

For `C[C@@H]1Cc2c([nH]c3ccccc23)[C@@H](c2c(F)ccc(OCCNCCCF)c2F)N1C[C@H](C)C(=O)O`, the IC50 in series [1] was 6.31 nM. The logD in series [3] came to 0.4. This compound returned an intrinsic metabolic clearance (hepatocyte CLint) in series [2] below 1 µL/min/1e6 cells.

`Cc1ccc(OCCNCCCF)c(F)c1[C@@H]1c2[nH]c3ccccc3c2C[C@@H](C)N1CC(F)(F)F` had an IC50 in series [1] of 1.58 nM. Further, the hepatocyte CLint in series [2] is 5 µL/min/1e6 cells.

As for `Cc1c(OCCN(C)CCCF)ncc(F)c1[C@@H]1c2[nH]c3ccccc3c2C[C@@H](C)N1C[C@H](C)C(=O)O`, the IC50 in [1] is 1 nM.

`Cc1ccc([C@@H]2c3[nH]c4ccccc4c3C[C@@H](C)N2CC(F)(F)F)cc1OCCNCCCF` gave an IC50 in series [1] of 251 nM. For the same compound, the hepatocyte CLint in [2] amounted to 26 µL/min/1e6 cells.

With `Cc1cc(OCCNCCCF)cc([C@@H]2c3[nH]c4ccccc4c3C[C@@H](C)N2CC(F)(F)F)c1`, the IC50 in series [1] was 5.01 nM. The compound further yielded a hepatocyte CLint in series [2] of 17 µL/min/1e6 cells.
